The values that follow are results of earlier work, collected in US20230190793A1, “Pharmaceutical Preparation for Use in the Treatment of Systemic Inflammatory Response Syndrome (SIRS)” (priority 2020, published 2023).

In the case of chlorous acid, the “Acid dissociation constant as pKa at 298 K” value is recorded as 2.
